Assay results reported in publication PMC6858497 (The Journal of physiology, 2019).

Sequences of proteins named here, by UniProt entry; tags and fusion partners are left off. Residues count along the entry.
UniProt Q00960, 27-1482: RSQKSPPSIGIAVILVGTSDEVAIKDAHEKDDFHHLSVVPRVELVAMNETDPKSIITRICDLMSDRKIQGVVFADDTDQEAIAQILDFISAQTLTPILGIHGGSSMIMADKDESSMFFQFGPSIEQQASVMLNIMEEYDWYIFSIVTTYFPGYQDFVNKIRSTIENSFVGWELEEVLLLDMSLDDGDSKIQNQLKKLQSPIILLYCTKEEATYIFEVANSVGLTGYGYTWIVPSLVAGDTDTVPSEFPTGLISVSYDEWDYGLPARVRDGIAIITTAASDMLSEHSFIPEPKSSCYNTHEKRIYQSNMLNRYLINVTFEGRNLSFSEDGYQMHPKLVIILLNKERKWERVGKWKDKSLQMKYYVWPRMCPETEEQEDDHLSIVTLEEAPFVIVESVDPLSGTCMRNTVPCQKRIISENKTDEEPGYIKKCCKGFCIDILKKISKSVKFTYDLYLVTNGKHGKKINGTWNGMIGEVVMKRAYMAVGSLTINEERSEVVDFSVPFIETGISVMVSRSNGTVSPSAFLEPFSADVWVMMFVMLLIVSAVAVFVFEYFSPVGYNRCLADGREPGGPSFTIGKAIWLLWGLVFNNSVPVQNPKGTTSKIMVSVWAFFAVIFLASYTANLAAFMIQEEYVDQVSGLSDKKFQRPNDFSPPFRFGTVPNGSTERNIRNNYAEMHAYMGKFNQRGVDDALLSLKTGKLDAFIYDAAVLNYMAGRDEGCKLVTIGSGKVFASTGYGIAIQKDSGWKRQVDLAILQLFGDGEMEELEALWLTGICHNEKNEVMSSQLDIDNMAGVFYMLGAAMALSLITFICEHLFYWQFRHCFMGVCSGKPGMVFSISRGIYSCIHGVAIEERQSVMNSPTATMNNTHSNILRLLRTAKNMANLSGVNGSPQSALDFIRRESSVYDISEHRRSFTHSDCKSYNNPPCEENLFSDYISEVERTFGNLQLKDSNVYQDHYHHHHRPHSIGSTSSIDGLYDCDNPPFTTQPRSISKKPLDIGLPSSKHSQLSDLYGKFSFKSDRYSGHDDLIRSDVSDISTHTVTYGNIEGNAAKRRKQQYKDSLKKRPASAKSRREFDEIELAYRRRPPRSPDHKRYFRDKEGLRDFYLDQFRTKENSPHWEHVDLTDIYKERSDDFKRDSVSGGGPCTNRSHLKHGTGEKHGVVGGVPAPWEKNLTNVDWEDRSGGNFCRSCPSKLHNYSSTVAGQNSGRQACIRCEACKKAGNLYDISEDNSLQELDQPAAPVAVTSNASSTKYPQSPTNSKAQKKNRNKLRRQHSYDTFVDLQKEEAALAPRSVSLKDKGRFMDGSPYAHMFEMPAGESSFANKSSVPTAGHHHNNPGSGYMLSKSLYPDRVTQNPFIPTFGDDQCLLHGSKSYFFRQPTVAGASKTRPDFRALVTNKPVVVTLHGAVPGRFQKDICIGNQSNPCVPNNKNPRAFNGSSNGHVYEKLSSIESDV
UniProt Q62645, 28-1323: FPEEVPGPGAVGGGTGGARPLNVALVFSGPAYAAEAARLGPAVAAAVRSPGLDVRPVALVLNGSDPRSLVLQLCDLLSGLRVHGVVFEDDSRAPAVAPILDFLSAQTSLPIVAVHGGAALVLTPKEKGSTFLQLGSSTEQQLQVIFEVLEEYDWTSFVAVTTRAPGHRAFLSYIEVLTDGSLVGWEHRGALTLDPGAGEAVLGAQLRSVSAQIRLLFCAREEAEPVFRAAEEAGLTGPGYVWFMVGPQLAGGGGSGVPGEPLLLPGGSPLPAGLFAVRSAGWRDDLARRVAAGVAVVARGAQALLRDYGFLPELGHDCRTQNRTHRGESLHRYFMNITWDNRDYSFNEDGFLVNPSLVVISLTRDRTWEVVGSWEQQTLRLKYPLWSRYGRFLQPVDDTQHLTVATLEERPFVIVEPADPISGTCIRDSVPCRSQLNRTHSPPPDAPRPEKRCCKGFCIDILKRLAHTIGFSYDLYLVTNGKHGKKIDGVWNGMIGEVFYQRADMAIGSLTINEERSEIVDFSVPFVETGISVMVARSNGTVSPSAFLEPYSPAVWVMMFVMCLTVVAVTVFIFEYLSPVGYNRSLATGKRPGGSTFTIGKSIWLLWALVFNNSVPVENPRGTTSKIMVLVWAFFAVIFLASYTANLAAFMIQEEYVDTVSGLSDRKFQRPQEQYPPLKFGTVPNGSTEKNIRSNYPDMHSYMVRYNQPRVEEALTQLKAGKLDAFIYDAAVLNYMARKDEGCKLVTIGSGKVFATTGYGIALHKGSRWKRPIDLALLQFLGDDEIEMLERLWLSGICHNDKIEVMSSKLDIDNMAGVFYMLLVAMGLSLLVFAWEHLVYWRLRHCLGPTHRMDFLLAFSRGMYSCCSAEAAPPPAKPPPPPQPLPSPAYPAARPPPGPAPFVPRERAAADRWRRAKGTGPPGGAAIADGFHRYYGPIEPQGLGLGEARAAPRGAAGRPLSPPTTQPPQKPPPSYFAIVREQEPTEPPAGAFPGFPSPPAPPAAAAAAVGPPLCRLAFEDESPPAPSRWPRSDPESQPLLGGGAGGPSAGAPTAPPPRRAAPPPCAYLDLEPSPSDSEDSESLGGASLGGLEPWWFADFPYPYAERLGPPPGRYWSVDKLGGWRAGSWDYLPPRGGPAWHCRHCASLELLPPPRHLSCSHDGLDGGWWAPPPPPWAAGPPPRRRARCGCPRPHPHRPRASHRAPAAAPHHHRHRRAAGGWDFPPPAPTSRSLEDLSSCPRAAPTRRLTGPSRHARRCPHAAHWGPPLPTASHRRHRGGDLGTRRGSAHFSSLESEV

Tests used:
Assay in all cases: Two-electrode voltage-clamp recordings, Xenopus oocytes
Type in all cases: cell-based
Conditions in all cases: agonist concentration-response, isoform 1a
GluN1–1a/2BC1/2DC2 = GluN1–1a/2BC1/2DC2 (Rattus norvegicus, UniProt P35439+Q00959+Q00960+Q62645, A876H/F846L/G856D/H848F/K857R/M851T/M860L/Q845K/R869K/V861L/V866F)
GluN1–1a/2B = GluN1–1a/2B (Rattus norvegicus, UniProt P35439+Q00960)
GluN1–1a/2D = GluN1–1a/2D (Rattus norvegicus, UniProt P35439+Q62645)

**Q.** With `NCC(=O)O` [glycine] as the compound, how does the “nH (Hill coefficient)” value (GluN1–1a/2BC1/2DC2) read?
**A.** 1.6

**Q.** And the “nH (Hill coefficient)” value (GluN1–1a/2B)?
**A.** 1.8

**Q.** And the “nH (Hill coefficient)” value (GluN1–1a/2D)?
**A.** 1.6
